Apparent affinities of Ab-14 variants for a coronavirus HR2 peptide

The target is the same throughout: PDVDLGDISGINAS, from the HR2 region of SARS-CoV-2 spike.

Parent: Ab-14, a human scFv built as VH, three GGGGS repeats, VL. Only the CDRs of the light chain vary.
VH: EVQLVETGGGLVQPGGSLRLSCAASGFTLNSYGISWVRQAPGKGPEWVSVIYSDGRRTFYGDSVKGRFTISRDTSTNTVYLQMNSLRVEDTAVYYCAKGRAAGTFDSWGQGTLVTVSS
VL: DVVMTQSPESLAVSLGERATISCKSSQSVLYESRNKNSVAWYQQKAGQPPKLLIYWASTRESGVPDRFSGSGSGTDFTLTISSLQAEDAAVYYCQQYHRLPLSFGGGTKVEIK

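The starting antibody came from a phage panning campaign against this peptide. The variants were designed computationally from a first round of random CDR variants and then made and measured. Their group label is 14L_GP_Gibbs (GP: Gaussian process model; Gibbs: Gibbs sampling; a sequence that several methods proposed may carry one label only). The assay is AlphaSeq: two haploid yeast populations carry antibody and antigen on their surface. Pairs that bind mate more often; barcode pairs of the diploids are counted by sequencing. The ratio of observed to expected reads was calibrated, replicate by replicate, on BCL2-family standards whose Kd was known from biolayer interferometry. There are six technical replicates.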

Each variant is given by its three light chain CDRs, as the data file delimits them; those of the parent are KSSQSVLYESRNKNSVA, WASTRES, QQYHRLPLS. Affinities are written as log10 Kd with Kd in nM; a lower number is a better binder. The mean shown is taken over the replicates in which the pair was detected. "n.d." marks a missing value. The strain was present, yet no cells mated with the target were sequenced in that replicate, which points to weak or no binding. As a blank, each scFv also met three strains without target: over all light chain designs, 4% of these pairings were detected, typically at 2.64 and seldom below 1.59. The control count says in how many pairings with the empty strains this scFv gave a signal, with their mean in brackets. In the paper, a design with two or fewer of six values counts as a poor binder. The range of this assay differs from that of the first round, and the authors advise against merging the two.

CDR-L1	CDR-L2	CDR-L3	log10 Kd, replicates	log10 Kd (nM), mean	control signals
KLVQSELYESRNTNSVA	NASQRCS	QQYHRLPLS	0.33 0.10 0.09 -0.06 -0.04 0.21	0.11	0/18
KVGQQFLQEQRNKNSVA	DASLRES	QQYHRLPLS	0.16 0.22 -0.14 0.09 -0.20 0.18	0.05	0/18
KLQQSQLYESRNKNSVA	DASQRLV	QAYHRLPLS	0.56 0.63 0.30 0.45 0.52 0.58	0.51	1/18 (3.70)
KLSQSVGYESRNVNNVA	NASTREL	QQYHRLPLS	-0.03 -0.35 -0.38 -0.57 -0.29 -0.27	-0.32	1/18 (1.94)
KQQFSSGGGSRNKNSVA	EASTRCS	QQYHRLPLS	0.62 0.53 0.55 0.42 0.30 0.51	0.49	2/18 (2.56)
KLSFLGNYEQRNKNSVA	SASTRCS	QQYHRLPLS	-0.27 -0.44 -0.53 -0.34 -0.39 -0.22	-0.36	3/18 (3.16)
KLQFSVDYESRNKNAVA	EASTREQ	QQYHRLPLS	-0.18 -0.38 -0.37 -0.57 -0.41 -0.44	-0.39	0/18
KLMQEVLYESRLANSVA	NASTRLE	QQYHRLPLS	0.52 0.59 0.35 0.38 0.43 0.68	0.49	4/18 (2.69)
KTEVSQDYESRNQNSVA	NASERES	QQYHRLPLS	0.13 0.08 -0.03 -0.24 -0.10 0.05	-0.02	2/18 (2.61)
KLSASVLYGKRNKNSVA	QASQRCS	QQYHRLPLS	2.26 1.64 2.28 1.50 1.70 1.84	1.87	2/18 (2.89)
HSYQSGLYESRNQNSVA	SASMRES	QQYHRLPLS	0.35 0.08 0.18 0.12 0.10 0.42	0.21	3/18 (2.37)
LVSQQELYEDRNKNSVA	SASQRLS	QQYHRLPLS	0.26 0.56 0.22 0.42 0.21 0.50	0.36	0/18
KQDQSDGGEQRNKNSVA	SASTRCE	QQYHRLPLS	0.03 0.53 0.25 -0.06 0.24 0.21	0.20	0/18
KVQQSELGGSRNKNSVA	NASTRED	QQYHRLPLS	-0.05 -0.12 -0.16 -0.30 -0.25 -0.10	-0.16	1/18 (2.79)
KLEFLHLYESRNKNSVA	QASTRES	QQYHRLPLS	0.39 -0.04 0.22 0.40 0.34 0.20	0.25	0/18
KWFQSVLMESMLVNSVA	NASQRES	QQYHRLPLS	n.d. 1.47 1.34 2.22 0.75 2.33	1.62	0/18
KLQQSELYEERNSNSVA	SASLRES	QQYHRLPLS	-0.43 -0.24 -0.61 -0.42 -0.45 0.03	-0.35	0/18
KFSQSNPYETRNKNSVA	EASQREE	QQYHRLPLS	0.15 0.10 -0.17 -0.23 -0.14 -0.27	-0.09	1/18 (2.25)
KCSQKVDYEDRNMNNVA	NASTRES	QDYHRLPLS	-0.11 -0.28 -0.23 -0.28 -0.09 0.00	-0.17	2/18 (2.62)
KMSQEVPLESRNDNAVA	MASTRMM	QQYHRLPLS	0.76 0.60 0.74 0.65 0.64 0.87	0.71	5/18 (3.38)
KLMYLVLYESRNKNSVA	NASTRLQ	QQYHRLPLS	1.02 0.76 0.84 0.99 0.76 0.76	0.86	0/18
KLEQSTLYESRNKNSVA	NASTRES	QQYKRLPLS	1.46 n.d. 3.05 1.88 2.25 2.37	2.20	0/18
KLMQGDEYESRNKNSVA	NASKREE	QQYHRLPLS	-0.32 -0.38 -0.27 -0.66 -0.46 -0.26	-0.39	0/18
KMSQENPYEDRNSNSVA	HASTREM	QQYHRLPLS	0.16 0.18 0.21 0.05 -0.10 0.33	0.14	2/18 (2.89)
KVQQSELGLSRNKQSVA	EASTRED	QQYHRLPLS	0.06 -0.10 -0.12 0.61 0.36 -0.12	0.11	0/18
KLQNSMLYESRNVNSVA	DASKRES	QAYHRLPLS	0.79 0.71 0.69 0.43 0.55 0.69	0.64	1/18 (1.58)
KYQQQVLTESRNKNSVA	NASTRES	QQYHQLPLS	0.72 0.60 0.57 0.53 0.80 0.99	0.70	4/18 (2.35)
KLYQSQLYDSRNKNSVA	QAHHREV	QQYHRLPLS	0.60 0.41 0.65 0.42 0.65 0.76	0.58	0/18
KHSQSVLREDRVKNSVA	DASQRES	QQYHRLPLS	0.35 0.69 0.03 0.46 0.90 0.37	0.47	0/18
KLDYSWPGESRNKNSVA	DASTRES	QQYHRLPLS	0.37 0.43 0.25 0.02 0.58 0.41	0.34	1/18 (3.07)
KLVQSELYESRNKNNVA	GVSQRES	QQYHRLPLS	0.45 -0.05 -0.17 -0.16 -0.02 0.31	0.06	0/18
KLQQADLYESRNKNSVA	QASTRSS	QCYHRLPLS	0.36 0.28 0.16 0.34 0.17 0.40	0.29	0/18
KLSQSTWYESGMKNSVA	NASLREQ	QQYHRLPLS	0.24 0.04 -0.14 0.12 -0.13 0.42	0.09	0/18
KLQQLMLYESRMKNSVA	NASTRGS	QQYHRLPLS	0.40 0.23 0.02 0.38 0.17 0.14	0.22	0/18
KVSQSWLYEDRNWNSVA	QASCRNS	QQYHRLPLS	0.28 0.33 -0.12 0.33 0.01 0.35	0.20	0/18
KYQQSEPYESRNKNSVA	NASTRMS	QQYHQLPLS	0.16 0.07 0.04 -0.07 0.26 0.13	0.10	0/18
KLSQSNLYEDRNLNNVA	NASQRES	QQYHRLPLM	-0.33 -0.50 -0.42 -0.70 -0.60 -0.40	-0.49	1/18 (2.67)
KLSFGNLYESRNQNSVA	KASTRLQ	QQYHRLPLS	0.38 -0.01 0.08 0.02 0.42 0.67	0.26	0/18
KLSISVEYQDRLSNSVA	DASQREW	QQYHRLPLS	0.18 0.27 0.02 -0.26 0.00 0.38	0.10	2/18 (2.55)
KVEMSVPYEQRNKNSVA	HASVRES	QQYHRLPLS	0.12 0.23 0.00 0.03 0.15 0.30	0.14	2/18 (2.37)
KFEGSEGYESRNKNSVA	EASHRMS	QQYHRLPLS	-0.21 -0.16 -0.14 -0.31 -0.22 0.09	-0.16	2/18 (2.27)

The last 4 entries again:

CDR-L1	CDR-L2	CDR-L3	log10 Kd, replicates	log10 Kd (nM), mean	control signals
KLSFGNLYESRNQNSVA	KASTRLQ	QQYHRLPLS	0.38 -0.01 0.08 0.02 0.42 0.67	0.26	0/18
KLSISVEYQDRLSNSVA	DASQREW	QQYHRLPLS	0.18 0.27 0.02 -0.26 0.00 0.38	0.10	2/18 (2.55)
KVEMSVPYEQRNKNSVA	HASVRES	QQYHRLPLS	0.12 0.23 0.00 0.03 0.15 0.30	0.14	2/18 (2.37)
KFEGSEGYESRNKNSVA	EASHRMS	QQYHRLPLS	-0.21 -0.16 -0.14 -0.31 -0.22 0.09	-0.16	2/18 (2.27)

The measurements come from Li et al. 2023 (doi:10.1038/s41467-023-39022-2) through the FLAb antibody collection.